Assay results: patent US10766889B2, “Aryl-2,2′-tandem bisthiazole compound and preparation method and use thereof” (SHANGHAI INSTITUTE OF MATERIA MEDICA, CHINESE ACADEMY OF …, priority 2016, dated 2020)
Values joined by “and” are separate entries in the source; they are usually repeats but may differ in a detail not shown here. Equal values may be shown once. Read-outs that look alike come from different tables or passages of the source.

Chains of the proteins cited; added tags and fusions are not shown.
UniProt Q13547, whole entry: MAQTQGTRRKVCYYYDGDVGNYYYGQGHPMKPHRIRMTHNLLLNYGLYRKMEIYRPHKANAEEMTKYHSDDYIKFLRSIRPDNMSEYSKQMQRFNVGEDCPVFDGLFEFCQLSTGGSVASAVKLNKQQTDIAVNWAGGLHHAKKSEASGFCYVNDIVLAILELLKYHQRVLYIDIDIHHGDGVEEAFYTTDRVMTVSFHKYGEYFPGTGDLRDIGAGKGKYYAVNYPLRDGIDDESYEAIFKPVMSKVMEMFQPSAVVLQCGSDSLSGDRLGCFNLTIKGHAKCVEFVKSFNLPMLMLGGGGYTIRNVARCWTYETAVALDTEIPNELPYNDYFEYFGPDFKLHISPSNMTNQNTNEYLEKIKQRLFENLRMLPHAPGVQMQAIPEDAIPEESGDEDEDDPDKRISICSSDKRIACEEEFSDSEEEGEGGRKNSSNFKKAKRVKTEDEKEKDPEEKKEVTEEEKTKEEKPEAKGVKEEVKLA

Molecular target: T1, human HDAC1 (Homo sapiens, UniProt Q13547)
T1 construct: made in house
Test: Inhibition activity test of histone deacetylase 1 (fluorescence, Ac-Lys-Tyr-Lys(Ac)-AMC substrate)
Assay type: biochemical

[1] = mean of 3 experiments, read-out: IC50 HDAC1

| IC50 [1] | Structure (SMILES) | IC50 (IC50 HDAC1, mean of 3 experiments) [nM] |
| --- | --- | --- |
| 2 to 3 nM and 2.53 nM | C[C@H](NC(=O)c1nc(-c2ncc(-c3ccccc3)s2)sc1C1CC1)c1ccc(C(=O)NO)cc1 [Compound H08] | – |
| 43 ± 10.3 nM | C[C@@H](NC(=O)c1nc(-c2ncc(-c3ccccc3)s2)sc1C1CC1)c1ccc(C(=O)NO)cc1 [Compound H11] | – |
| – | O=C(CCNC(=O)c1nc(-c2nccs2)sc1C1CC1)NO [bexanostat] | 95.1 ± 48.5 |
